Target: GLP-1 receptor
Assay: cell-based or functional assay

Exendin-4 (peptide) showed an In Vitro Activity (% of Val^8-GLP-1) (% of Val^8-GLP-1) of 500.

Source: patent US20040053370A1
